Patent publication US20040115667A1, “Dna-sequences, which code for an apoptosis signal transduction protein” (priority 2000, published 2004)
Entries after “also recorded” stand apart in the source; their conditions may differ.

System: Bcl-rambo-induced cell death (caspase-3 activity) in 293T cells
Assay: Effect of apoptosis inhibitors on apoptotic activity of full-length Bcl-rambo in 293T cells
Assay type: cell-based, human
Settings: 27 hours, 2 μg Bcl-rambo plasmid, 0.5 μg inhibitor vector, standardized by β-galactosidase
Experimental: The effect of different apoptosis inhibitors on the apoptotic activity of Bcl-rambo is investigated in FIG. 6. For this, 293T cells were transfected for 27 hours (shown in FIG. 6A) with 2 μg of Bcl-rambo expression plasmid and 0.5 μg of expression vectors encoding various apoptosis inhibitors, together with 0.5 μg of β-galactosidase expression vector. The following apoptosis inhibitor proteins were selected: FLIP, CrmA, cIAP-1, cIAP-2, XIAP, DN-FADD, DN-caspase 9 and Bcl-XL, and also a comparative experiment in which no vector expressing an apoptosis inhibitor was added (“none”).
293T cells (3×10^5 cells) were sown on 60 mm culture dishes on the day before the transfection and then transiently cotransfected with 2 μg of Bcl-rambo expression plasmids and 0.2 μg of EGFP expression vector (pEGFP-C1, from Clontech) or with 0.5 μg of pCMV-β-galactosidase expression vector. The postnuclear lyzates were then analyzed with regard to the fluorescence intensity of EGFP, the galactosidase activity and the caspase-3 activity using a peptide substrate (Ac-DEVD-AMC, from Alexis). In order to be able to compare the individual measurements, the caspase-3 activity (measured as the number of times it was increased by the induction) was standardized using the fluorescence intensity of EGFP or the β-galactosidase activity.

| Substance | blocking of Bcl-rambo-induced cell death by coexpressed apoptosis inhibitor | blocking of Bcl-rambo-induced cell death by coexpressed apoptosis inhibitor (listed as c-IAP-1) |
| --- | --- | --- |
| c-IAP1: apoptosis inhibitor of the IAP family, coexpressed | inhibitory effect | act as inhibitors |
| xIAPs: apoptosis inhibitor of the IAP family, coexpressed | strong inhibitors; also recorded: inhibitory effect |  |
